# Yeast mating assay 2: variants of the scFv Ab-91

Antigen: PDVDLGDISGINAS, a 14-residue peptide of the SARS-CoV-2 spike HR2 region.

The variants keep the light chain, the linker and the frameworks of Ab-91 (scFv order VL, the linker GGGGSGGGGSGGGGS, VH).
VL: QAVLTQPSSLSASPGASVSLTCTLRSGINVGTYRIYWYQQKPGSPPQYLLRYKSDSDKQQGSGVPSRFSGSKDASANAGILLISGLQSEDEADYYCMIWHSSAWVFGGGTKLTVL
VH: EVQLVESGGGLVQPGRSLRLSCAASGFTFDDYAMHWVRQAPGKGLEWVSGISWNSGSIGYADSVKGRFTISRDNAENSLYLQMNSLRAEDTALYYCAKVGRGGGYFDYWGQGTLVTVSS

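The starting antibody came from a phage panning campaign against this peptide. Library AAYL51 holds single substitutions and randomly drawn double and triple substitutions in the CDRs. AlphaSeq pools MATa yeast showing the antibodies with MATalpha yeast showing the peptide. The frequency of each diploid, read from paired DNA barcodes, reflects how well the two displayed proteins bind. Scores were corrected for input abundance and mapped to Kd with protein pairs of known affinity run in the same pool. There are three technical replicates.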

The parent's heavy chain CDRs are GFTFDDYAMH, GISWNSGSIGYADSVK, VGRGGGYFDY; each variant's own CDRs replace them letter for letter.
This list gathers variants with a substitution at D30 (VH, numbered from residue 1).
The Kd shown is the geometric mean over detected replicates; a lower Kd is a better binder.
"no signal" marks a missing value. The strain was present, yet no cells mated with the target were sequenced in any replicate, which points to weak or no binding.
Three control strains display no target. For library AAYL51, 21% of the pairings with them gave a signal, with a median of 34 µM and one signal in twenty below 1.8 µM, so weak values seen in few replicates may be background.

CDR-H1,CDR-H2,CDR-H3,apparent Kd,seen in
AFTMVDYAMH,GISWNSGSIGYADSVK,VGRGGGYFDY,4.9 µM,2 of 3
GFTFIDYAMH,GISWNSGSIGYADSVK,VGRPDGYFDY,68 nM,3 of 3
GFTFMDQAMH,GISWNSGSIGRADSVK,VGRGGGYFDY,no signal,0 of 3
GFTFGDYAMH,GISWNSGSIGYGDSCK,VGRGGGYFDY,810 nM,3 of 3
GFTFCDYAMH,GISWVSGSIGYADSVK,VGRGGGYFDY,7.9 µM,2 of 3
GFTFVDYAMH,GISWNSGSAGYADSVK,VGRGGGYFDL,13 µM,1 of 3
GFTRKDYAMH,GISWNSGSIGYRDSVK,VGRGGGYFDY,54 µM,3 of 3
GFGFQDYAMH,GISWNSGSIGYADYVK,VGRGGGYFDY,10 nM,3 of 3
GFTFMDYAMH,GISWNVGSIGYADSVK,VGRGGGFFDY,9.3 µM,3 of 3
GFTFWDYAMH,GISWNSGSIGYADSVK,VGNGGGYFDY,51 nM,3 of 3
GFTFQDYAMH,GISWNSGSIGCADSVK,VGRGGHYFDY,6.2 µM,1 of 3
GFTFRNYAMH,GISWNSCSIGYADSVK,VGRGGGYFDY,140 nM,3 of 3
GFTFGDYAMH,GISWNSGSIGYADSVE,VGRGGGDFDY,no signal,0 of 3
GFTFPDYAMH,GISINSGSIGYADSVK,CGRGGGYFDY,2.2 µM,2 of 3
GFTFLDYAMH,GISENIGSIGYADSVK,VGRGGGYFDY,no signal,0 of 3
WFTFGDYAMH,GISWNSGSIGYADSVK,VGRGGGYFDY,24 µM,2 of 3
GFTFRDYAME,GISWNSGSIGYADSVK,VGRGEGYFDY,54 µM,1 of 3
GFTFNDYAMH,GISSNSGSIGYADSVK,VGRGGGYRDY,62 µM,2 of 3
GFTWIDYAMH,GISWNSGGIGYADSVK,VGRGGGYFDY,430 nM,1 of 3
GFTFRDYAMH,VISWNSGSIGYADHVK,VGRGGGYFDY,300 µM,3 of 3
GFTFADYAMH,GISWNSGSIGYADSVK,VGRGGSYFDY,11 nM,3 of 3
GFTMHDYAMH,GISWNSGSIGYADSNK,VGRGGGYFDY,6.3 µM,3 of 3
GFCFGDYAMH,GISWNSGSIGYADSVK,VGRGGGYFFY,no signal,0 of 3
GFTFMDYAMH,GISWNSGSIGYADSQK,VGDGGGYFDY,36 µM,1 of 3
GFTFWDYAMH,GISWNSGSIHYADSVK,VGTGGGYFDY,no signal,0 of 3
GFTLMDYAMH,GISWNSGSIGYADSVK,VIRGGGYFDY,870 nM,1 of 3
GFTFMDYAWH,GISWNSGSIGYADPVK,VGRGGGYFDY,87 µM,3 of 3
GFTFYDYAMH,GISWNSGSIGYADEVK,VGRGGGYFDY,17 µM,2 of 3
GFTVGDYAMH,GISWNSGSIGYADSVK,VGRGGGYFDY,340 nM,3 of 3
GFTFTDYAMH,DISWNSGSIGYADSVK,VGSGGGYFDY,500 µM,2 of 3
GFTFVDYAMH,GISWNSGSIGYADLVK,VGGGGGYFDY,no signal,0 of 3
HFTFQDYAMH,GISWNSGSIGYADSCK,VGRGGGYFDY,370 µM,2 of 3
GFTFLDYAMH,GISWNSGSIGYADSVK,VGRGGGYFDY,3.8 µM,3 of 3
GFTFWDYAMH,GISWNDGSIGYADSVK,VGRGGGYFQY,150 µM,2 of 3
PFTFGDYAMH,GISWNSVSIGYADSVK,VGRGGGYFDY,2.4 µM,1 of 3
GFTFADYAMH,GISWNSGSKGIADSVK,VGRGGGYFDY,20 nM,3 of 3
KFTFEDYAMH,GISWNSGSIGYADSVK,VRRGGGYFDY,1.9 µM,2 of 3
GFTFGDYAMH,GISWNSGSIGAADSVK,VGRGGGEFDY,54 nM,3 of 3
GFTTRIYAMH,GISWNSGSIGYADSVK,VGRGGGYFDY,3.2 µM,1 of 3
IFTFFDYAMH,GIEWNSGSIGYADSVK,VGRGGGYFDY,no signal,0 of 3
HFTFEDYAMH,GISWNSGSIGYADSVK,VGRGGGSFDY,11 µM,1 of 3
GFTFFDYAMH,GISWHSGSIGYADSVK,VGNGGGYFDY,60 µM,3 of 3
GFTFPDYAMR,GISWNSGSIGYADSVK,VGRGGGYFVY,590 µM,3 of 3
GFTFNDYAMN,GISWNSGSIGYADSVK,VGRGGCYFDY,no signal,0 of 3
GFTFRDYAMH,GISWNSGSIGYADSVK,VGRGGMVFDY,40 µM,3 of 3
HFTFQDYAMH,GISWNSGSIGYADSVK,VGRGGGYFDY,22 nM,3 of 3
GFTFYDYAMH,GISWNSGSIGYAMSVK,VGRGGTYFDY,no signal,0 of 3

Source: Engelhart et al. 2022 (doi:10.1038/s41597-022-01779-4), MIT Lincoln Laboratory and A-Alpha Bio; data file from the FLAb repository.